Measured values from publication PMC7765948, “Spadin Modulates Astrocytic Passive Conductance via Inhibition of TWIK-1/TREK-1 Heterodimeric Channels” (International Journal of Molecular Sciences, 2020).

How the values were obtained:
[1] = tested on: animal behavioral models of depression; conditions: cited from earlier work
Source text: It is well known that TREK-1 activity is modulated by multiple signals such as mechanostretching, heat, pH changes, polyunsaturated fatty acids, and Gq or Gs-induced phosphorylation. […] However, in the present study, we clearly demonstrat ...

[2] = tested on: concatenated TREK-1-TWIK-1 heterodimeric channel; assay: Whole-cell currents in COS-7 cells expressing concatenated TWIK-1-TREK-1; type: cell-based, mouse; conditions: +50 mV, 10 µM spadin
Description: cDNAs encoding for full-length mouse TREK-1 (GenBank accession no. NM_010607) and mouse TWIK-1 (NM_008430) were obtained by using an RT–PCR based gateway cloning (ThermoFisher, Waltham, MA, USA). TWIK-1 K274E mutant was generated using full-length cDNA as templates via the EZchange site-directed mutagenesis kit (Enzynomics, Daejeon, Korea). All constructs were cloned into pDEST-IRES2-GFP vectors by gateway cloning. […]
Current–voltage (I–V) curves were recorded from COS-7 cells expressing TWIK-1 K274E, TREK-1 or concatenated TWIK-1-TREK-1-IRES2-GFP. […] The I–V relations were measured by applying 1-s ramp pulses (from −150 mV to +50 mV) from a holding potential of −60 mV. […] Currents were analyzed with Clampfit software (Axon instruments, Union City, CA, USA). […]
(§1) All data are presented as means ± standard error of the mean (s.e.m). The significance of data for comparison was assessed by Student’s t-test (paired t-test) or one-way ANOVA followed by Turkey’s post hoc test, and significance levels are given as: n.s: not significant, * p < 0.05, ** p < 0.01, *** p < 0.001, and **** p < 0.0001. […]

[3] = tested on: astrocytic passive conductance in mouse hippocampal slices; assay: Astrocytic passive conductance in hippocampal slices after lentiviral shRNA knockdown; type: cell-based, mouse (C57BL/6); conditions: 10 µM spadin
Source text: For gene silencing in cultured astrocytes and mouse brain slices, TWIK-1 shRNA and TREK-1 shRNA were constructed and the knockdown efficiencies of these shRNAs were validated as described previously. Briefly, the target region of shRNA was as follows: mouse TWIK-1: 5′-[…]-3′; mouse TREK-1: 5′-[…]-3′. These target sequences were inserted into lentiviral pSicoR vector (Addgene okasnud #11579) and Scrambled shRNA-containing pSicoR construct was used as a control. These pSicoR vectors were transfected into primary cultured astrocytes to perform electrophysiological experiments. Transfected primary astrocytes were easily detected under a fluorescence microscope since GFP fluorescent protein is expressed from these pSicoR vectors.
Using lentiviral pSicoR vectors expressing validated mouse shRNAs against TWIK-1 and TREK- 1, high-titer lentiviruses were produced by KIST virus facility (Korea) as previously described. Lentiviruses were injected into hippocampal CA1 region (AP: 0.17, ML: 0.17, DV: 0.19) of 7–8 week-old wild-type C57BL/6 mice. […]
as §1

TRESK = conditions: heterologous systems; cited from earlier work
Source text: (§2) The activity of TWIK-1 homodimeric channels was not modulated by spadin, but concatenated TWIK-1-TREK-1 heterodimeric channels were inhibited (Figure 5). Since K2P heterodimeric channels are known to be regulated by regulators specific only for single subunit isoforms, even if the TWIK ...

TASK-1 = conditions: heterologous systems; cited from earlier work
Source text: as §2

human TREK-1 = tested on: human TREK-1; set-up: method as in PMID 20405001, PMID 22022421, PMID 32317978; conditions: low concentrations; cited from earlier work

**Q.** With CC[C@H](C)[C@H](NC(=O)[C@@H]1CCCN1C(=O)CNC(=O)[C@H](CO)NC(=O)[C@H](Cc1c[nH]c2ccccc12)NC(=O)[C@H](CCCNC(=N)N)NC(=O)[C@@H]1CCCN1C(=O)[C@H](CC(C)C)NC(=O)[C@@H]1CCCN1C(=O)[C@H](C)NC(=O)[C@@H](N)Cc1ccc(O)cc1)C(=O)NCC(=O)N[C@H](C(=O)N[C@@H](CO)C(=O)N[C@@H](Cc1c[nH]c2ccccc12)C(=O)NCC(=O)N[C@@H](CC(C)C)C(=O)N[C@@H](CCCNC(=N)N)C(=O)O)C(C)C [spadin] as the compound, how does the depression phenotypes ([1]; animal behavioral models) read?
**A.** The depression phenotypes was “alleviates depression phenotypes”.

**Q.** What about the antidepressant effects ([1]; mice treated with spadin) of the same compound?
**A.** The antidepressant effects was “antidepressant effects have been reported”.

**Q.** What about the “K^+ conductance of concatenated heterodimeric channel with spadin” value [2] of the same compound?
**A.** Its value is “largely inhibited”.

**Q.** What about the “passive conductance with spadin” value ([3]; Lenti-ScRNA infected astrocytes) of the same compound?
**A.** The value was “drastically decreased”.

**Q.** What about the “passive conductance with spadin” value ([3]; Lenti-TWIK-1 shRNA or Lenti-TREK-1 shRNA infected astrocytes) of the same compound?
**A.** Its value is “not further affected”.

**Q.** What about the “effect on TRESK” value (TRESK) of the same compound?
**A.** The value was “does not affect”.

**Q.** What about the “effect on TASK-1” value (TASK-1) of the same compound?
**A.** The value was “does not affect”.

**Q.** What about the “inhibition of human TREK-1” value (human TREK-1) of the same compound?
**A.** Its value is “inhibited by spadin at low concentrations”.
